This note sets out measurements from patent US20080015251A1, “Means and method for treating lipotoxicity and other metabolically related phenomena” (Yissum Research Development Co., of The Hebrew University …, priority 2006, published 2008).

SMILES strings stand for the structures.

The test system of this experiment is J774.2 macrophages. Kind of experiment: Cell viability by propidium iodide exclusion (membrane integrity), flow cytometry. The conditions noted are these: 0.1% LE; AA 0.5 mM, resv 0.2 mM, querc 0.2 mM, lyc 10 AM, carot 10 AM, toc 0.2 mM, LA 0.25 mM, Se 1 AM (FIG. 8A). Format: cell-based, Murine. On the procedure:
Murine J774.2 macrophages were cultured in RPMI medium enriched with 10% fetal calf serum, 1% glutamine, and 1% penicillin-streptomycin. […] Prior to experimental procedures, macrophages were seeded on 6-well plates at a concentration of 50,000 cells/ml.
The physiological range of TG in plasma is up to 1.5 mg/ml. […] Other agents, such as antioxidants or cycloheximide (CH), were added as specified in the relevant figure legends.
Cell membrane integrity was detected as previously described. Briefly, cells were stained with 2 Ag/ml propidium iodide (PI) and measured by flow cytometry, (FACS Calibur, Becton Dickinson, Calif.) at the following fluorescence setting: excitation at 488 nm and emission at 575 nm. Data were collected from 10,000 cells.

With `[Se]` [selenium], the “protection against TG-induced lipotoxicity (rate of cell death)” value is “did not have any protective effect or even enhanced the rate of cell death”.
